Test results: patent US6331555A, “Treatment of platelet derived growth factor related disorders such as cancers” (priority 1999, dated 2001)

Amino acid sequences for entries named in this document (tags omitted). Residues count along the entry.
UniProt P09619, 33-1106: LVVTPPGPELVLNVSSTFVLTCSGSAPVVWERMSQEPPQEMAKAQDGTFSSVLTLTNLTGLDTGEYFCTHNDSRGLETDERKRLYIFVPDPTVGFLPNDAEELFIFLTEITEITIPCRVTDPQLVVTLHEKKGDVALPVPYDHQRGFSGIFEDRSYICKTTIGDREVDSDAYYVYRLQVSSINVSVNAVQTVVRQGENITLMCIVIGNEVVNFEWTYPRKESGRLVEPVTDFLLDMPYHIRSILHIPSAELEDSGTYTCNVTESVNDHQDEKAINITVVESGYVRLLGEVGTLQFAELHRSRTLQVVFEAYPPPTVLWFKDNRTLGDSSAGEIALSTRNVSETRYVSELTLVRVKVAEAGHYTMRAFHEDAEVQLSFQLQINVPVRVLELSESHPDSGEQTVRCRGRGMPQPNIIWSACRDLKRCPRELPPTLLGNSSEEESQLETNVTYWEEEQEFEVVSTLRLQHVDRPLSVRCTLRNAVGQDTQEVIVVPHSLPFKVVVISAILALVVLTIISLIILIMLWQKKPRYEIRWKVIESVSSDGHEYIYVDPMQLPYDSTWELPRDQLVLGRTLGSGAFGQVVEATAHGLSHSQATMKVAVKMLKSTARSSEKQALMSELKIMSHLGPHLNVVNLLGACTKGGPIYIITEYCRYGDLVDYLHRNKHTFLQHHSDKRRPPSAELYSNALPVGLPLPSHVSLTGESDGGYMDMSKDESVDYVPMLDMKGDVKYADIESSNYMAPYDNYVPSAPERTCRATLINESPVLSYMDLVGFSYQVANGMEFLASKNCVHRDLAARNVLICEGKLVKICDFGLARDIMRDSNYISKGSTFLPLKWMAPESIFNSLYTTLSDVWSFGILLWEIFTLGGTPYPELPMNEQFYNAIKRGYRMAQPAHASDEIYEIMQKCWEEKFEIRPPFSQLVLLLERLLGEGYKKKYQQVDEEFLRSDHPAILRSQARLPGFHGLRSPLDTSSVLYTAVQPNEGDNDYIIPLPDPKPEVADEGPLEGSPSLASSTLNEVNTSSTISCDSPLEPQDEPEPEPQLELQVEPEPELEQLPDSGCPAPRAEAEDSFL

Assays:
PDGFR = PDGFR (Homo sapiens, UniProt P09619); assay: Receptor tyrosine kinase inhibition, PDGFR; type: cell-based; design: U1242 (PDGF-β receptor); host or cells: U1242 glioma cells (ELISA)
Experimental: (§1) For western blotting, cells were plated in 2 mL growth medium into 6-well dishes (500,000 cells per well) and allowed to attach overnight. […] The plates were then incubated overnight at 37° C., ambient CO2. […] After a 7 min incubation at room temperature with ligand, the plates were put on ice and washed three times with 1 mL ice-cold PBS plus 1 mM orthovanadate. Lysis was achieved by pipetting cells in 0.5 mL of buffer containing 50 mM Tris, pH 7.4, 10% glycerol, 1% NP-40, 2 mM EDTA, 1 mM sodium vanadate (Na3 VO4), 10 mM pyrophosphate, 1 mM PMSF, […]. A 300 μL aliquot of each lysate was immediately added to 100 μL 4×Laemmli sample buffer ([…] Tris pH 6.9, 20% glycerol, 7% SDS, 5 mM EDTA, 5% β-mercaptoethanol) containing phosphatase inhibitors, 2 mM Na3 VO4 and 10 mM pyrophosphate. Samples were boiled for 5 min, frozen in dry ice-ethanol, and stored at -80° C. […] The integrity of the protein-to-membrane transfer was determined by staining with 1% Ponceau S in 5% acetic acid for 5 min. After destaining in several distilled water rinses, the membrane was soaked overnight in blocking buffer containing 5% milk in Tris-buffered saline, 0.05% Tween 20. Phosphotyresine was detected by incubating the membrane (1 hr at room temperature) with an anti-phosphotyosine antiserum diluted in blocking buffer at 1:3000. […]

PDGF-R (U1242) = target: T1, PDGF-R (U1242) (Homo sapiens, UniProt P09619); assay: U1242 kinase (PDGF-R activity); type: cell-based
T1 construct: U1242 (PDGF-β receptor); host or cells: U1242 MG glioma cells
Experimental: as §1, with “After destaining in several distilled water rinses, the membrane was soaked overnight in blocking buffer containing 5% milk in Tris-buffered saline, 0.05% Tween 20.” left out
PDGF-R activity, C6 SRB, and in vivo efficacy were measured using the procedures described in the appendices above.

Molecule `Cc1cc2ncc(-c3ccccc3)nc2cc1C` [Compound G13] has an IC50 (PDGFR) of 1500 nM and an IC50 (PDGF-R (U1242)) of 1500 nM.
